According to ChEMBL document CHEMBL1126522, “Indolocarbazoles. 1. Total synthesis and protein kinase inhibiting characteristics of compounds related to K-252c” (Bioorg Med Chem Lett, 1993):

Target: Protein kinase C (PKC)
Experiment: Inhibition of partially purified rat brain protein kinase C

## COC(=O)[C@@]1(O)C[C@H]2O[C@]1(C)n1c3ccccc3c3c4c(c5c6ccccc6n2c5c31)C(=O)NC4 (single isomer, unassigned) [K-252A]
  IC50: 60 nM
